Tests used:
[1] = system: E. coli; assay: FDAA/CDAA labeling of E. coli, fluorescence microscopy; format: cell-based, Escherichia coli; settings: incubation with FDAA or CDAA (CDAA captured by azido/alkyne fluorophores)
[2] = system: B. subtilis; assay: FDAA/CDAA labeling of B. subtilis, fluorescence microscopy; format: cell-based, Bacillus subtilis; settings: incubation with FDAA or CDAA (CDAA captured by azido/alkyne fluorophores)

C[C@@H](NN=[N+]=[N-])C(=O)O
Labeling of E. coli [1]: labeled both E. coli and B. subtilis | Labeling of B. subtilis [2]: labeled both E. coli and B. subtilis

From patent US20160222430A1, “D-ALA-D-ALA-BASED DIPEPTIDES AS TOOLS FOR IMAGING PEPTIDOGLYCAN BIOSYNTHESIS” (INDIANA UNIVERSITY RESEARCH AND TECHNOLOGY CORPORATION, priority 2013, published 2016)
